Experimental data as given in patent US10099995B2 (Cole Research and Design, LLC, priority 2015, dated 2018).

Experiments:
[1] = Comparative solubility in pH 7.4 PBS buffer by HPLC; conditions: for Solubility: 4 mg/mL sample, filtered, HPLC
Method: Two 4 mg samples of each compound were weighed.
The first sample was used to determine solubility. The sample was mixed with 1 mL of pH 7.4 phosphate buffered saline (PBS) buffer solution to produce a 4 mg/mL solution. The solution was vortexed and filtered to remove undissolved particles. The filtered solution was then diluted in pH 7.4 buffer in triplicate and stored in a refrigerator to reduce hydrolysis. The solutions were allowed to sit at room temperature for 5 minutes and then were analyzed by HPLC.
The second sample was used to prepare a calibration curve in ethanol. Calibrators were made based on expected solubility. After visually inspecting solubility in the buffer, the calibration curve was determined in order to include points above and below the expected concentration. The calibrators were stored in a refrigerator until ready for analysis by HPLC.

[2] = hydrolysis observed during the solubility study; conditions: pH 7.4 buffer, during HPLC solubility analysis

solubility as compared to resveratrol [1]	hydrolysis [2]	Substance	Solubility [1]	Solubility ([1]; listed as resveratrol di-valinate)
		resveratrol di-valinate	Not soluble	insoluble
improved solubility	slightly hydrolyzed	resveratrol tri-valinate-hemisuccinate	201 µg/mL	
